Data as given in PubChem BioAssay (EPA / NIEHS).
The entries are a selection whose mix differs from that of the whole data set. Calls of active or inactive are those of the source. Rule for the calls: active = hit-call score of the fitted dose curve at least 0.9, where 1 is the maximum; inactive = score below 0.9.

Assay: ATG_RORE_CIS: Attagene CIS-FACTORIAL HepG2 Assay for human RAR-related Orphan Receptor Element (RORE) (AID 2282959)
Conditions: HepG2 Attagene cis-factorial RORE reporter, mRNA; actives raise or lower the signal

outcome, inactive:
CCCCCCCCOC(=O)c1ccc(O)cc1
C1CN(SSN2CCOCC2)CCO1
CC(C)C(OC(=O)c1ccccc1)C(C)(C)COC(=O)c1ccccc1 (centres undefined)
COC(=O)c1ccc(O)cc1
CC1OC(=O)C(C)OC1=O (centres undefined)
NC(=O)Nc1ccc(Cl)cc1
CCOC(=O)OC(=O)OCC
NCCCN1CCN(CCCN)CC1
CCCOCCC
CC(CC=O)c1ccccc1 (centres undefined)
CCOC(=O)[C@H](C)Oc1ccc(Oc2nc3ccc(Cl)cc3o2)cc1
CC(C)CCCCCOC(=O)CCS
c1ccc2c(c1)[nH]c1ccccc12
CCNc1nc(N)nc(Cl)n1
CCCCCCOC(=O)CCCCCCCC(=O)OCCCCCC
Cc1ncc([N+](=O)[O-])n1C
Cc1cc(C)nc(NS(=O)(=O)c2ccc(N)cc2)n1
CCc1cccc(CC)c1
O=C(O)c1snc(Cl)c1Cl
C1COCO1
CCOC(=O)NNc1nncc2ccccc12
O=C(C(Cl)Cl)N1CCOC12CCCCC2
O=C(O)c1cccc(Cl)n1
Nc1c(Cl)cc(Cl)cc1[N+](=O)[O-]
CC(=O)c1ccccc1
Cc1cc(C(C)(C)C)c(O)c(C(C)(C)C)c1
C=C[C@](C)(O)CC[C@@H]1[C@@]2(C)CCCC(C)(C)[C@@H]2CC[C@@]1(C)O
CCCOC(=O)c1ccc(C(=O)OCCC)nc1
CC(C)c1cccc(C(C)C)c1N1C(=O)c2ccc(O)cc2C1=O
